“Also recorded” adds a separate entry of the source. Like-named read-outs stand apart in the source and are kept apart here.
Experiments:
[1] = tested on: PML-retinoic acid receptor-α; test: 3XRARE-Luc reporter transfection assay in 293T cells, PML-RARα; format: cell-based, human
Protocol: (§1) The experiment was performed in medium reconstituted with serum not depleted of endogenous retinoids. Luciferase activity was measured in a scintillation counter and normalized with the internal β-galactosidase standard. […] Note that in panels A and B luciferase activity is expressed by different scales.
(§2) Luciferase activity was normalized with the internal β-galactosidase standard. Values represent the averages of two independent transfections.
(§3) 293T cells and KG1 cells were transfected by calcium phosphate precipitation, and by electroporation as already described^25, and luciferase activity of each sample was normalized against internal control β-galactosidase activity^25.
(§4) Nuclear receptor co-repressors form complexes with histone deacetylases (HDAC1 or 2), resulting in nucleosome assembly and transcriptional repression^15.

[2] = tested on: PLZF-retinoic acid receptor-α; test: 3XRARE-Luc reporter transfection assay in 293T cells, PLZF-RARα; format: cell-based, human
Protocol: as §1, §2, §3, §4

[3] = tested on: PLZF-retinoic acid receptor-α bone marrow leukaemic cells; test: Myeloid differentiation (NBT assay) of PLZF-RARα bone marrow leukaemic cells; format: cell-based, mouse; details: retinoic acid 10^-7 M and 10^-6 M
Protocol: Myeloid differentiation was evaluated by performing the nitroblue tetrazolium (NBT) assay, and cell proliferation by measuring DNA synthesis quantitating incorporation of ^3 H-thymidine.
(§5) Differentiation was evaluated performing the nitroblue tetrazolium (NBT) assay and morphological differential count^32. Proliferation of bone marrow cells was evaluated by measuring DNA synthesis quantitating incorporation of ^3 H-thymidine (Amersham). Bone marrow cells were plated at a density of 2×10^6 cells/ml and were pulsed with ^3 H-thymidine at a final concentration of […].

[4] = tested on: blasts from both X-retinoic acid receptor-α leukaemias
Protocol: as §5

NB4 cells [5] = test: NB4 cell proliferation (3H-thymidine incorporation); format: cell-based, human; details: all-trans retinoic acid alone
Protocol: (§6) NB4 cells, a line that stably carries the PML/RAR-α fusion protein of acute promyelocytic leukemia^71, were maintained in RPMI1640 medium, which was supplemented with 10% fetal bovine serum and 1% of penicillin-streptomycin, at 37° C. in 5% CO2 atmosphere. Cultures were established at an initial density of 10^5 cells/ml in the presence or absence of drugs at various concentrations. Cellular proliferation was measured by assessment of ^3 H-thymidine incorporation. Aliquots (180 μl) from each culture were placed into 96-well plates in triplicate after 20 hrs of incubation, and 0.5 μCi of ^3 H-thymidine in 20 μl of medium was added to each well. […] The proportion of cells undergoing apoptosis was determined by Annexin V staining^72. […] Annexin V and propidium iodide positivity were analyzed by flow cytometry (Becton-Dickinson, Mountainview, Calif.). Cell viability was measured after 4 days of incubation by using trypan blue exclusion. Cellular differentiation was evaluated at day 4 of incubation using both an assay for nitroblue tetrazolium (NBT) reduction and expression of CD11b (a cell surface differentiation antigen)^73. […] Expression of CD11b, including percentage of positive cells and the fluorescence intensity, was determined by using flow cytometry (Becton Dickinson).

NB4 cells [6] = test: NB4 cell apoptosis (Annexin V flow cytometry); format: cell-based, human; details: all-trans retinoic acid alone, 2 days
Protocol: as §6

NB4 cells [7] = test: NB4 cell differentiation (CD11b expression and NBT reduction); format: cell-based, human; details: all-trans retinoic acid alone, 4 days
Protocol: as §6

[8] = tested on: acute promyelocytic leukemia; format: in vivo, human
Description: The patient used for clinical study is a person who was diagnosed with acute promyelocytic leukemia in 1994.

[9] = tested on: promyelocytic leukaemia-retinoic acid receptor-α leukaemia
[10] = tested on: PLZF-retinoic acid receptor-α leukaemia
[11] = tested on: PML-retinoic acid receptor-α fusion protein / SMRT
[12] = tested on: PLZF-retinoic acid receptor-α/SMRT co-repressor complex
[13] = tested on: acute promyelocytic leukemia
[14] = tested on: PML/RAR-α mSin-3/N-CoR/HDAC complex; details: all-trans retinoic acid alone, in vitro; cited from earlier work
[15] = tested on: human APL patients harboring t(11;17); details: upon retinoic acid treatment; cited from earlier work
[16] = tested on: human APL patients harboring t(15;17); details: retinoic acid treatment not accompanied by chemotherapy; cited from earlier work
[17] = tested on: acute promyelocytic leukemia; details: similar highly resistant patients; cited from earlier work
[18] = retinoic acid per os daily, 1.5 mg per gram of mouse body weight
[19] = retinoic acid treated, untreated mice died within 4 weeks

Compound: CC1=C(/C=C/C(C)=C/C=C/C(C)=C/C(=O)O)C(C)(C)CCC1 [retinoic acid, all-trans-retinoic acid]
- transactivation of reporter / relief of transcriptional repression [1]: can partially overcome; also recorded: can stimulate the transactivation of the reporter gene
- transactivation of reporter / relief of transcriptional repression [2]: but not PLZF-retinoic acid receptor-α transcriptional repression; also recorded: negligible
- differentiation [3]: little if no effects
- differentiation ([3]; listed as Retinoic acid): minimal
- differentiation in vitro [4]: induced differentiation in vitro
- growth of blasts [4]: inhibited the growth of blasts
- proliferation (NB4 cells [5]): inhibition of proliferation
- induction of apoptosis (NB4 cells [6]): relatively little effect upon induction of apoptosis
- differentiation (NB4 cells [7]): dose-dependent induction of differentiation
- Response ([8]; Apr. `98, after relapse): Progression
- Response ([8]; Nov. `94): Complete remission
- Response ([8]; Nov. `95, after relapse): Complete remission
- Response ([8]; Oct. `97, after relapse): Progression
- relapse and resistance after remission ([9]; continued retinoic acid treatment, also at five fold higher doses): relapsed shortly after remission was achieved, were refractory to further retinoic acid treatment
- white blood cell count kinetics ([9]; peripheral blood, weekly counts, retinoic acid 1.5 mg per gram daily): dramatic increase of white blood cells upon the first week of treatment followed by a decrease to normal values by the second and third week of treatment
- remission rate (RR), complete clinical remission [9, 18]: 80%
- time to remission [9, 18]: remission was obtained by week three
- survival from diagnosis [9, 19]: up to eight week from diagnosis
- white blood cell count ([10]; after one week of retinoic acid treatment, 1.5 mg per gram daily): increase of white blood cells
- leukaemias in remission by the third week of treatment ([10]; high dose retinoic acid, 7.5 mg per gram body weight daily): three out of four
- remission rate (RR), clinical remission ([10]; high dose retinoic acid, 7.5 mg per gram body weight, daily intraperitoneal injections): 75%
- survival from diagnosis [10, 19]: up to eight week from diagnosis
- co-immunoprecipitation of endogenous SMRT [11]: not with the wild-type retinoic acid receptor-α or PML-retinoic acid receptor-α fusion protein
- co-immunoprecipitation of endogenous SMRT [12]: endogenous SMRT co-immunoprecipitated only with the PLZF-retinoic acid receptor-α chimeric protein
- dissociation of co-repressor complex [12]: could dissociate, albeit not completely
- repeat bone marrow ([13]; after 11 days of all-trans retinoic acid alone): showed no improvement
- peripheral blood leukocyte count ([13]; during treatment with all-trans retinoic acid alone): absence of change
- displacement of the repressor complex [14]: displaced the repressor complex in retinoid-sensitive but not retinoid-resistant NB4 cells
- complete remission [15]: never achieved complete remission
- resistance to retinoic acid [16]: invariably occurred
- plasma concentration and clinical response on increasing the dose [17]: neither increases the plasma concentration nor recaptures the clinical response
